Results as given in ChEMBL document CHEMBL3102815, “Structure Guided Optimization, in Vitro Activity, and in Vivo Activity of Pan-PIM Kinase Inhibitors” (ACS Med Chem Lett, 2013).

Protein sequences, listed by entry. Tags and fused reporters are not part of them. Lines headed by an entry give the natural chain unless they say otherwise; changes in a name come on top.
UniProt Q9P1W9: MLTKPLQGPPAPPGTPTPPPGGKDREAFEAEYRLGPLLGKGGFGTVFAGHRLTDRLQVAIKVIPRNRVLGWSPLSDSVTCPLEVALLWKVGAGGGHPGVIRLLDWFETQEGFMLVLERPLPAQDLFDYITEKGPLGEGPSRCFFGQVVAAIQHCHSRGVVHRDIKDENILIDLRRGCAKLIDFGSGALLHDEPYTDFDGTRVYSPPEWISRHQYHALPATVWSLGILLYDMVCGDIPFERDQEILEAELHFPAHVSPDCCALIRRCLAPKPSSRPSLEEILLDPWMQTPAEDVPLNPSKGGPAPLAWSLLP

Molecular target: Serine/threonine-protein kinase pim-2 (Homo sapiens, UniProt Q9P1W9)

Ki: 610 nM
Structure (SMILES): CN1CCC(CNc2ccc3ncc(-c4cccc(OC(F)(F)F)c4)n3n2)CC1 [SGI-1776]
